Antibody variant affinities, Ab-14 light chain, assay B

Source: Li et al. 2023 (doi:10.1038/s41467-023-39022-2), MIT Lincoln Laboratory and A-Alpha Bio; data file from the FLAb repository.

Antigen: PDVDLGDISGINAS, a 14-residue peptide of the SARS-CoV-2 spike HR2 region.

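The parent was found by panning a naive human phage display library on the peptide. This is the validation round: designs drawn from the data on random variants, tested in the same kind of assay. Group labels follow the data file (Ctrl: baseline library sampled from a position-specific scoring matrix, with some repeated check sequences; Rand: our label for a block that the file lists under HC and that is probably the random mutants of the ten best first-round binders; En: ensemble of fine-tuned language models; GP: Gaussian process model; HC: hill climbing; Gen: genetic algorithm; Gibbs: Gibbs sampling; a sequence that several methods proposed may carry one label only). Affinity was read by AlphaSeq, a pooled yeast mating assay with surface-displayed partners. Pairs that bind mate more often; barcode pairs of the diploids are counted by sequencing. Read counts were normalised to the haploid input and turned into Kd by a linear fit to BCL2-family pairs of known affinity, for each replicate. There are six technical replicates.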

Each scFv is VH, three GGGGS repeats, VL, as in the parent Ab-14, and differs from it in the CDRs of the light chain only.
VH: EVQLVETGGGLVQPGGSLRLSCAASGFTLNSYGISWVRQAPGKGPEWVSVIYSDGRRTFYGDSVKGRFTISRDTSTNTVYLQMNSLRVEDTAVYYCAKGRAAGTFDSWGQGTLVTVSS
VL: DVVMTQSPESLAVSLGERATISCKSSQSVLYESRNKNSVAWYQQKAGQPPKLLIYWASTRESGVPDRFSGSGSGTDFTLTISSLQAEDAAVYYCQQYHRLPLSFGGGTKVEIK

The parent's light chain CDRs are KSSQSVLYESRNKNSVA, WASTRES, QQYHRLPLS; each variant's own CDRs replace them letter for letter.
Numbers give log10(Kd / nM), so 0 is 1 nM and 3 is 1 µM. Smaller is tighter.
Replicates are averaged; those with no signal do not enter the mean.
"no signal" means that the variant was in the library but no mating with the target was seen in any replicate; the authors take this as a sign of poor binding, and no number exists.

mean log10 Kd (nM) | replicates with signal | CDR-L1 | CDR-L2 | CDR-L3 | group
1.58 | 1/6 | KSSIPVLYGSRNKNPVA | WASTRES | QQYHRLPLS | Ctrl
1.94 | 6/6 | KSSQSVYYESRNKNSVA | HASTREQ | QQYHRLPLS | Ctrl
no signal | 0/6 | KLNQDPVLKTNINNNVA | EHTEVFQ | QQYAHLPLQ | En_Gibbs
2.32 | 6/6 | KSSQSVYEESGNKNSVA | WASTRES | QQYHTLPLS | Ctrl
0.79 | 6/6 | KLQQSVLYESRNKNSVA | EASTRSS | QQYHRLPLS | GP_Gen
0.35 | 6/6 | KLVQEKSGGIANMQNIA | AADVLSQ | QQYNKLPLS | En_Gibbs
-0.13 | 6/6 | KSGQSFLYESRNKNSVA | GASMRES | QQYHRLPLS | GP_Gibbs
-0.37 | 6/6 | KLSQSVLYESRNKNSVA | NASTRES | QQYHRLPLW | GP_Gen
no signal | 0/6 | KSEQSVLYESRNKNSVA | WDSTRES | QQYHRLPLS | Ctrl
0.88 | 6/6 | KVSQSGLYGSRNKWSVA | NASTRES | QQYHRLPLQ | GP_Gibbs
0.65 | 6/6 | KFSQSVLYESRNKNSVA | WAQTRES | QQYHRMPLS | Ctrl
2.70 | 2/6 | KLRQSTLYESRNKNSVA | WASTRES | RQYHKTPLS | Rand
-0.61 | 6/6 | KLSQSVLYEERNKNNVA | GASTRES | QQYHRLPLS | GP_Gen
0.56 | 6/6 | TFDQMGEQKGMNTNSVA | AGNIVRI | QQYSRLPFS | En_Gibbs
2.07 | 2/6 | KSDQSVLYESRNKNSVA | WASTRES | QQYLRLPLS | Ctrl
1.65 | 6/6 | HLGLVTELEAKVSNSVA | NNSTREE | QQYDRLPLS | En_Gen
0.11 | 6/6 | KVSQSVPYESRNKNSVA | EASTRES | QQYHRLPLS | GP_Gen
1.82 | 4/6 | KSSQSVLYESNNKNSVA | WASTRES | QQYCRLPLS | Ctrl
2.04 | 6/6 | HMSMLTLQGQRHRNAVA | QMTTREN | QQYDRLPLI | En_Gen
1.48 | 6/6 | KSSQSVLYESRNKNSVA | DASTRES | QQYHSLPLS | Ctrl
2.47 | 5/6 | KLGATVGYEQRNKSRVA | DNSTRES | QQYDRLPLS | En_HC
1.19 | 6/6 | KVSQSDPYESPNKNSVA | NASTRMQ | QQYHRLPLS | GP_Gibbs
0.82 | 6/6 | HITDLMYNNNEGMENIA | DKNISVM | QQYFRLPLI | En_Gibbs
0.46 | 6/6 | VLSQSMDMTSRNVNSVA | DLTTRGN | QQYHRLPLS | En_HC
0.11 | 6/6 | NLSWKQIGQNMESMAVA | HTEQRNA | QQYARLPLS | En_Gibbs
2.51 | 2/6 | MLLQATMYGERQRNSVA | HAQTRED | QQYHRLPLI | En_HC
-0.16 | 6/6 | KSQQSVLYESRNKNNVA | DASTRED | QQYHRLPLS | GP_HC
2.83 | 4/6 | HLLQEVTGHSRNRNSVA | HNSTRED | QQYDRLPLS | En_HC
0.87 | 4/6 | KVSCSYLYESRNKNSVA | EASTRES | QQYHRLPLS | GP_HC
0.10 | 6/6 | KLSPSEQYLDRNCNAVA | QASQRES | QQYHRLPLS | GP_Gibbs
-0.42 | 6/6 | KLSQSWLMESRNKNSVA | NASTRES | QQYHRLPLS | GP_Gen
0.51 | 6/6 | KLPNSTLYESRQKNSVA | HASTRES | QQYHRLPLS | GP_HC
-0.30 | 6/6 | KVYPSYLYESRNKNSVA | EASTRES | QQYHRLPLS | GP_HC
1.78 | 5/6 | KYSQSTLYDSRNKNSVA | WASTRES | QQYHRDPLS | Ctrl
0.32 | 6/6 | KFSQMANTFSVSMNAVA | EMSTREN | QQYNRLPLS | En_Gen
0.04 | 6/6 | KSSQSVLNESRNKNSVA | NASTRES | QQYHVLPLS | Ctrl
-0.16 | 6/6 | KLSQSVLTESRNKNSVA | DASTRES | QMYHRLPLS | Ctrl
no signal | 0/6 | KSGQGVLYESRVKNSEA | GASTRES | QQYHRLPLS | Rand
1.04 | 6/6 | HVEHASLESNATMNSVA | NEACLAI | QQYHRLPLA | En_Gibbs
-0.01 | 6/6 | KSSYSYLYESRNKNSVA | EASTREQ | QQYHRLPLS | GP_HC
1.18 | 6/6 | RLMGWGPDQIQHANSIA | DRDEVDM | QQYAHLPLS | En_Gibbs
0.03 | 6/6 | KLSMTSEMEHKNRNSVA | ELVTRMS | QQYNRLPLS | En_Gen
0.81 | 6/6 | KIRVQQYMQSEMESNIA | GESVRHS | QQYFHLPLT | En_Gibbs
0.02 | 6/6 | KSSQSVLYESRNKNSVA | DASTRES | QQYHRLPLP | Ctrl
0.53 | 6/6 | KYSQSDEYESRNFNSVA | NASTRLM | QQYHRLPLS | GP_Gibbs

From the list, the first 3 with no signal in any replicate:

CDR-L1 | CDR-L2 | CDR-L3 | group | mean log10 Kd (nM) | replicates with signal
KLNQDPVLKTNINNNVA | EHTEVFQ | QQYAHLPLQ | En_Gibbs | no signal | 0/6
KSEQSVLYESRNKNSVA | WDSTRES | QQYHRLPLS | Ctrl | no signal | 0/6
KSGQGVLYESRVKNSEA | GASTRES | QQYHRLPLS | Rand | no signal | 0/6

The authors averaged sequences with at least three values out of six and counted those with two or fewer as poor binders.
A sequence measured in both rounds can read differently, since the two assays cover different ranges.
As a blank, each scFv also met three strains without target: over all light chain designs, 4% of these pairings were detected, typically at 2.64 and seldom below 1.59.